# Source: patent US20200308168A1 (priority 2017, published 2020)
# Chains of the proteins cited; added tags and fusions are not shown.
# UniProt P20309, whole entry: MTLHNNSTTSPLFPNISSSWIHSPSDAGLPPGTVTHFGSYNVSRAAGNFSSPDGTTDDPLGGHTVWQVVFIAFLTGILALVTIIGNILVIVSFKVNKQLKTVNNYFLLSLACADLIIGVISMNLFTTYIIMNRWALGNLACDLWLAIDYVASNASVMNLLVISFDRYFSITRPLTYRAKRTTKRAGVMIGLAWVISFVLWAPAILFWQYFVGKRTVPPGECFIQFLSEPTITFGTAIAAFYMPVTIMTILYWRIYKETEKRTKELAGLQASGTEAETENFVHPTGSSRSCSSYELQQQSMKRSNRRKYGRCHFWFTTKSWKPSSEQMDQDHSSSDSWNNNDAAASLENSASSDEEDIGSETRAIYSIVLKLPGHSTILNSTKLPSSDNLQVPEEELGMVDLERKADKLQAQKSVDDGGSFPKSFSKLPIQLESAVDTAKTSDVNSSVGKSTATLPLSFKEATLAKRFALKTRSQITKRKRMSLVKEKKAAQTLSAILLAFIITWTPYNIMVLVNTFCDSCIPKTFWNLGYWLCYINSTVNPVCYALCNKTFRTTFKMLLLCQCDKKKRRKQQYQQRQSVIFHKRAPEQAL
# Structures can show the parent of a compound that is named as a salt.
# Molecular target: T1, human M3 receptor (Homo sapiens, UniProt P20309)
# Assay: not given
Compound,M3-receptor-selectivity (M3 over M2) [fold],better M3-receptor-selectivity compared to defluoro analogue REF 1 [fold]
"O=C(Nc1ccccc1-c1cccs1)O[C@H]1C[N@]2CC[C@H]1CC2 [REF 2, (1S,3R,4S)-Quinuclidin-3-yl(2-(thiophen-2-yl)phenyl)carbamate, reference compound]",7,–
"C[N@+]12CC[C@H](CC1)[C@@H](OC(=O)Nc1ccccc1-c1cccs1)C2.[I-] [REF 3, (1S,3R,4S)-1-Methyl-3-(((2-(thiophen-2-yl)phenyl)carbamoyl)oxy)quinuclidin-1-ium iodide, reference compound]",6,–
"O=C(Nc1ccc(F)cc1-c1cccs1)O[C@H]1C[N@]2CC[C@H]1CC2 [EXP 18, (1S,3R,4S)-Quinuclidin-3-yl (4-fluoro-2-(thiophen-2-yl)phenyl)carbamate]",39,–
"C[N@+]12CC[C@H](CC1)[C@@H](OC(=O)Nc1ccc(F)cc1-c1cccs1)C2 [EXP 19, (1S,3R,4S)-3-(((4-Fluoro-2-(thiophen-2-yl)phenyl)carbamoyl)oxy)-1-methylquinuclidin-1-ium formate]",27,–
"C[N+]1(C)[C@@H]2C[C@H](OC(=O)Nc3ccc(F)cc3-c3cccs3)C[C@H]1[C@H]1O[C@H]12 [EXP 36, (1R,2R,4S,5S,7S)-7-(((4-Fluoro-2-(thiophen-2-yl)phenyl)carbamoyl)oxy)-9,9-dimethyl-3-oxa-9-azatricyclo[3.3.1.0^2,4]nonan-9-ium formate]",–,5

# Molecular target: T1, human M3 receptor
# Assay: biochemical
row,Compound,Ki [nM]
1,"O=C(Nc1ccc(F)cc1C#CC1CCCCC1)O[C@H]1C[N@]2CC[C@H]1CC2 [EXP 42, (1S,3R,4S)-Quinuclidin-3-yl (2-(cyclohexylethynyl)-4-fluorophenyl)carbamate]",20 to 200
2,"Cc1csc(-c2cc(F)ccc2NC(=O)O[C@H]2C[N@]3CC[C@H]2CC3)c1 [EXP 22, (1S,3R,4S)-Quinuclidin-3-yl(4-fluoro-2-(4-methylthiophen-2-yl)phenyl)carbamate]",< 1
3,"O=C(Nc1ccccc1-c1cccs1)O[C@H]1C[N@]2CC[C@H]1CC2 [REF 2, (1S,3R,4S)-Quinuclidin-3-yl(2-(thiophen-2-yl)phenyl)carbamate, reference compound]",< 1
4,"Cc1ccsc1-c1cc(F)ccc1NC(=O)O[C@H]1C[C@@H]2[C@@H]3O[C@@H]3[C@H](C1)[N+]2(C)C [EXP 45, (1R,2R,4S,5S,7S)-7-(((4-Fluoro-2-(3-methylthiophen-2-yl)phenyl)carbamoyl)oxy)-9,9-dimethyl-3-oxa-9-azatricyclo[3.3.1.0^2,4]nonan-9-ium formate]",1 to 20
5,"O=C(Nc1ccc(F)cc1C#Cc1ccccc1)O[C@H]1C[N@]2CC[C@H]1CC2 [EXP 41, (1S,3R,4S)-Quinuclidin-3-yl (4-fluoro-2-(phenylethynyl)phenyl)carbamate]",20 to 200
6,"O=C(Nc1ccc(F)cc1C1=CCc2ccccc21)O[C@H]1C[N@]2CC[C@H]1CC2 [EXP 40, (1S,3R,4S)-Quinuclidin-3-yl(4-fluoro-2-(1H-inden-3-yl)phenyl)carbamate]",20 to 200
7,"Cc1ccsc1-c1cc(F)ccc1NC(=O)O[C@H]1C[N@]2CC[C@H]1CC2 [EXP 21, (1S,3R,4S)-Quinuclidin-3-yl(4-fluoro-2-(3-methylthiophen-2-yl)phenyl)carbamate]",1 to 20
8,"O=C(Nc1cc(F)c(F)cc1-c1ccccc1)O[C@H]1C[N@]2CC[C@H]1CC2 [EXP 15, (1S,3R,4S)-Quinuclidin-3-yl(4,5-difluoro-[2-phenyl]-phen-1-yl)carbamate]",< 1
9,"O=C(Nc1ccc(F)cc1-c1ccncc1)O[C@H]1C[N@]2CC[C@H]1CC2 [EXP 31, (1S,3R,4S)-Quinuclidin-3-yl(4-fluoro-2-(pyridin-4-yl)phenyl)carbamate]",1 to 20
10,"O=C(Nc1ccc(F)cc1-c1cc2ccccc2s1)O[C@H]1C[N@]2CC[C@H]1CC2 [EXP 37, (1S,3R,4S)-Quinuclidin-3-yl(2-(benzo[b]thiophen-2-yl)-4-fluorophenyl)carbamate]",1 to 20
11,"Cc1ccc(-c2cc(F)ccc2NC(=O)O[C@H]2C[C@@H]3[C@@H]4O[C@@H]4[C@H](C2)[N+]3(C)C)s1 [EXP 43, (1R,2R,4S,5S,7S)-7-(((4-Fluoro-2-(5-methylthiophen-2-yl)phenyl)carbamoyl)oxy)-9,9-dimethyl-3-oxa-9-azatricyclo[3.3.1.0^2,4]nonan-9-ium formate]",< 1
12,"C[N+]1(C)[C@@H]2C[C@@H](OC(=O)Nc3ccccc3-c3cccs3)C[C@H]1[C@@H]1O[C@@H]12 [REF 1, (1R,2R,4S,5S,7S)-9,9-Dimethyl-7-(((2-(thiophen-2-yl)phenyl)carbamoyl)oxy)-3-oxa-9-azatricyclo[3.3.1.0^2,4]nonan-9-ium formate, reference compound]",< 1
13,"C[N+]1(C)[C@@H]2C[C@@H](OC(=O)Nc3ccc(F)cc3-c3csc4ccccc34)C[C@H]1[C@@H]1O[C@@H]12 [EXP 48, (1R,2R,4S,5S,7S)-7-(((2-(Benzo[b]thiophen-3-yl)-4-fluorophenyl)carbamoyl)oxy)-9,9-dimethyl-3-oxa-9-azatricyclo[3.3.1.0^2,4]nonan-9-ium formate]",20 to 200
14,"O=C(Nc1ccc(F)cc1-c1sccc1Br)O[C@H]1C[N@]2CC[C@H]1CC2 [EXP 20, (1S,3R,4S)-Quinuclidin-3-yl (2-(3-bromothiophen-2-yl)-4-fluorophenyl)carbamate]",1 to 20
15,"C[N@+]12CC[C@H](CC1)[C@@H](OC(=O)Nc1ccccc1-c1cccs1)C2.[I-] [REF 3, (1S,3R,4S)-1-Methyl-3-(((2-(thiophen-2-yl)phenyl)carbamoyl)oxy)quinuclidin-1-ium iodide, reference compound]",< 1
16,CN1[C@@H]2CC[C@H]1C[C@H](OC(=O)Nc1ccc(F)cc1-c1cccs1)C2 [EXP 33],< 1
17,"Cc1csc(-c2cc(F)ccc2NC(=O)O[C@H]2C[C@@H]3[C@@H]4O[C@@H]4[C@H](C2)[N+]3(C)C)c1 [EXP 44, (1R,2R,4S,5S,7S)-7-(((4-Fluoro-2-(4-methylthiophen-2-yl)phenyl)carbamoyl)oxy)-9,9-dimethyl-3-oxa-9-azatricyclo[3.3.1.0^2,4]nonan-9-ium formate]",< 1

row,Compound,Ki [nM]
1,"C[N@+]12CC[C@H](CC1)[C@@H](OC(=O)Nc1ccc(F)cc1-c1ccsc1)C2 [EXP 25, (1S,3R,4S)-3-(((4-Fluoro-2-(thiophen-3-yl)phenyl)carbamoyl)oxy)-1-methylquinuclidin-1-ium formate]",< 1
2,"O=C(Nc1ccc(F)cc1-c1ccoc1)O[C@H]1C[N@]2CC[C@H]1CC2 [EXP 29, (1S,3R,4S)-Quinuclidin-3-yl(4-fluoro-2-(furan-3-yl)phenyl)carbamate]",1 to 20
3,"Cc1ccc(-c2cc(F)ccc2NC(=O)O[C@H]2C[N@]3CC[C@H]2CC3)s1 [EXP 23, (1S,3R,4S)-Quinuclidin-3-yl(4-fluoro-2-(5-methylthiophen-2-yl)phenyl)carbamate]",< 1
4,"O=C(Nc1cc(F)c(F)c(F)c1-c1ccccc1)O[C@H]1C[N@]2CC[C@H]1CC2 [EXP 16, (1S,3R,4S)-Quinuclidin-3-yl(3,4,5-trifluoro-[2-phenyl]-phen-1-yl)carbamate]",1 to 20
5,"O=C(Nc1ccc(F)cc1-c1cncs1)O[C@H]1C[N@]2CC[C@H]1CC2 [EXP 30, (1S,3R,4S)-Quinuclidin-3-yl (4-fluoro-2-(thiazol-5-yl)phenyl)carbamate]",20 to 200
6,"O=C(Nc1ccc(F)cc1-c1cccs1)O[C@H]1C[N@]2CC[C@H]1CC2 [EXP 18, (1S,3R,4S)-Quinuclidin-3-yl (4-fluoro-2-(thiophen-2-yl)phenyl)carbamate]",< 1
7,"Cc1cc(-c2cc(F)ccc2NC(=O)O[C@H]2C[N@]3CC[C@H]2CC3)cs1 [EXP 26, (1S,3R,4S)-Quinuclidin-3-yl(4-fluoro-2-(5-methylthiophen-3-yl)phenyl)carbamate]",< 1
8,"O=C(Nc1ccc(F)cc1-c1ccsc1)O[C@H]1C[N@]2CC[C@H]1CC2 [EXP 24, (1S,3R,4S)-Quinuclidin-3-yl (4-fluoro-2-(thiophen-3-yl)phenyl)carbamate]",< 1
9,"C[N+]1(C)[C@@H]2C[C@H](OC(=O)Nc3ccc(F)cc3-c3cc4ccccc4s3)C[C@H]1[C@H]1O[C@H]12 [EXP 47, (1R,2R,4S,5S,7S)-7-(((2-(Benzo[b]thiophen-2-yl)-4-fluorophenyl)carbamoyl)oxy)-9,9-dimethyl-3-oxa-9-azatricyclo[13.3.1.0^2,4]nonan-9-ium formate]",< 1
10,CN1[C@@H]2C[C@H](OC(=O)Nc3ccc(F)cc3-c3cccs3)C[C@H]1[C@H]1O[C@H]12 [EXP 35],< 1
11,"C[N+]1(C)[C@@H]2C[C@H](OC(=O)Nc3ccc(F)cc3-c3ccsc3)C[C@H]1[C@H]1O[C@H]12 [EXP 46, (1R,2R,4S,5S,7S)-7-(((4-Fluoro-2-(thiophen-3-yl)phenyl)carbamoyl)oxy)-9,9-dimethyl-3-oxa-9-azatricyclo[3.3.1.0^2,4]nonan-9-ium formate]",< 1
12,"C[N@+]12CC[C@H](CC1)[C@@H](OC(=O)Nc1ccc(F)cc1-c1cccs1)C2 [EXP 19, (1S,3R,4S)-3-(((4-Fluoro-2-(thiophen-2-yl)phenyl)carbamoyl)oxy)-1-methylquinuclidin-1-ium formate]",< 1
13,"Cc1ccc(-c2cc(F)ccc2NC(=O)O[C@H]2C[N@]3CC[C@H]2CC3)o1 [EXP 28, (1S,3R,4S)-quinuclidin-3-yl(4-fluoro-2-(5-methylfuran-2-yl)phenyl)carbamate]",1 to 20
14,"O=C(Nc1ccc(F)cc1-c1occc1Br)O[C@H]1C[N@]2CC[C@H]1CC2 [EXP 27, (1S,3R,4S)-Quinuclidin-3-yl (2-(3-bromofuran-2-yl)-4-fluorophenyl)carbamate]",1 to 20
15,"O=C(Nc1ccc(F)cc1-c1csc2ccccc12)OC1CN2CCC1CC2 [EXP 38, (1S,3R,4S)-Quinuclidin-3-yl(2-(benzo[b]thiophen-3-yl)-4-fluorophenyl)carbamate]",20 to 200
16,"C[N+]1(C)[C@@H]2C[C@H](OC(=O)Nc3ccc(F)cc3-c3cccs3)C[C@H]1[C@H]1O[C@H]12 [EXP 36, (1R,2R,4S,5S,7S)-7-(((4-Fluoro-2-(thiophen-2-yl)phenyl)carbamoyl)oxy)-9,9-dimethyl-3-oxa-9-azatricyclo[3.3.1.0^2,4]nonan-9-ium formate]",< 1
17,"O=C(Nc1ccc(F)cc1-c1cncnc1)O[C@H]1C[N@]2CC[C@H]1CC2 [EXP 32, (1S,3R,4S)-Quinuclidin-3-yl(4-fluoro-2-(pyrimidin-5-yl)phenyl)carbamate]",1 to 20

# Molecular target: T1, human M3 receptor
# Assay: not given
# Format: binding
# Parameters: expressed in transfected cells; host or cells: HEK293T, transient transfection
# Remark: another data set of the same source
row,Compound,selectivity for M3 over M2 by comparison of dissociation constants [fold]
1,"C[N+]1(C)[C@@H]2C[C@H](OC(=O)Nc3ccc(F)cc3-c3cccs3)C[C@H]1[C@H]1O[C@H]12 [EXP 36, (1R,2R,4S,5S,7S)-7-(((4-Fluoro-2-(thiophen-2-yl)phenyl)carbamoyl)oxy)-9,9-dimethyl-3-oxa-9-azatricyclo[3.3.1.0^2,4]nonan-9-ium formate]",170
